The results in this text go back to ChEMBL document CHEMBL5500396, “Discovery, Multiparametric Optimization, and Solid-State Driven Identification of CHF-6550, a Novel Soft Dual Pharmacology Muscarinic Antagonist and β2 Agonist (MABA) for the Inhaled Treatment of Respiratory Diseases” (J Med Chem, 2024).

Data set [1] concerns Cavia porcellus. The data set is described as follows: Bronchodilating effect in acetylcholine induced male albino Dunkin-Hartley guinea pig model preadministered intratracheally with compound followed by acetylcholine addition at 5 to 30 mins in presence of ICI-118551 and measured 1 hrs post compound treatment. The class given is functional, organism-based. To be noted: dose 0.03-0.3 nmol/kg, route it(Intratracheal).

Data set [2] relates to Cavia porcellus. The data set can be described thus: Bronchodilating effect in histamine-induced male albino Dunkin-Hartley guinea pig model preadministered intratracheally with compound followed by histamine addition at 5 to 30 mins and measured 1 hrs post compound treatment. The class given is functional, organism-based. To be noted: dose 0.03-0.3 nmol/kg, route it(Intratracheal).

In data set [3] the test system is Cavia porcellus. The data set is described as follows: Bronchodilating effect in acetylcholine induced male albino Dunkin-Hartley guinea pig model preadministered intratracheally with compound followed by acetylcholine addition at 5 to 30 mins and measured 1 hrs post compound treatment. Format: functional, organism-based. The following applies: dose 0.03-0.3 nmol/kg, route it(Intratracheal).

The subject of data set [4] is Cavia porcellus. The data set can be described thus: Bronchodilating effect in acetylcholine induced male albino Dunkin-Hartley guinea pig model assessed as prevention of bronchospasm preadministered with compound as dry powder followed by acetylcholine addition at 5 to 30 mins in presence of ICI-118551 and measured 1 hrs post compound treatment. The class given is functional, organism-based. To be noted: dose 0.3-3 nmol/kg.

For data set [5], the system named is Cavia porcellus. The data set can be described thus: Bronchodilating effect in histamine induced male albino Dunkin-Hartley guinea pig model assessed as prevention of bronchospasm preadministered with compound as dry powder followed by histamine addition at 5 to 30 mins and measured 1 hrs post compound treatment. The class given is functional, organism-based. The following applies: dose 0.3-3 nmol/kg.

Data set [6] has as its system Cavia porcellus. The data set is described as follows: Bronchodilating effect in acetylcholine induced male albino Dunkin-Hartley guinea pig model assessed as prevention of bronchospasm preadministered with compound as dry powder followed by acetylcholine addition at 5 to 30 mins and measured 1 hrs post compound treatment. The class given is functional, organism-based. To be noted: dose 0.3-3 nmol/kg.

The test system of data set [7] is Cavia porcellus. The data set can be described thus: Bronchodilating effect in acetylcholine induced male albino Dunkin-Hartley guinea pig model assessed as prevention of bronchospasm at 3 nmol/kg, preadministered with compound as dry powder followed by acetylcholine addition at 5 to 30 mins in presence of ICI-118551 and measured upto 24 hrs post compound treatment. Format: functional, organism-based.

Data set [8] concerns Cavia porcellus. The data set is described as follows: Bronchodilating effect in histamine induced male albino Dunkin-Hartley guinea pig model assessed as prevention of bronchospasm at 3 nmol/kg, preadministered with compound as dry powder followed by histamine addition at 5 to 30 mins and measured upto 24 hrs post compound treatment. The class given is functional, organism-based.

Data set [9] concerns Cavia porcellus. The data set is described as follows: Bronchodilating effect in acetylcholine induced male albino Dunkin-Hartley guinea pig model assessed as prevention of bronchospasm at 3 nmol/kg, preadministered with compound as dry powder followed by acetylcholine addition at 5 to 30 mins and measured upto 24 hrs post compound treatment. Format: functional, organism-based.

Data set [10] is described as follows: Drug metabolism in guinea pig lung assessed as (2S)-2-hydroxy-2-[3-[3-[[4-[[[(2R)-2-hydroxy-2-(8-hydroxy-2-oxo-1H-quinolin-5-yl)ethyl]amino]methyl]benzoyl]amino]propoxy]phenyl]-2-phenyl-acetic acid metabolite formation at 3 nmol/kg, IT(Intratracheal) administered as dry powder. The class given is ADME, tissue-based, Cavia porcellus. To be noted: in vivo, inhaled_or_intranasal.

The structures appear in SMILES notation. Activity calls are given as the source filed them. The calls are words filed in the database; no cut-off is given here.

Regarding `CN1CCC[C@@H](OC(=O)[C@](O)(c2ccccc2)c2cccc(OCCCNC(=O)c3ccc(CNC[C@H](O)c4ccc(O)c5[nH]c(=O)ccc45)cc3)c2)C1`, the Activity result with Cavia porcellus [1], with Cavia porcellus [2], in the data set on Cavia porcellus [3], in the data set on Cavia porcellus [4], with Cavia porcellus [5] and in the data set with Cavia porcellus [6] was “Dose-Dependent Effect” throughout. Besides, the result in the data set on Cavia porcellus [7], in the data set with Cavia porcellus [8] and with Cavia porcellus [9] was Active.

Consider `O=C(NCCCOc1cccc([C@](O)(C(=O)O)c2ccccc2)c1)c1ccc(CNC[C@H](O)c2ccc(O)c3[nH]c(=O)ccc23)cc1`, for which, in data set [10], the Drug metabolism result was “Metabolite_Notdetected”.
